Screening data deposited in PubChem BioAssay by ICCB-Longwood Screening Facility, Harvard Medical School.
HCMV UL50-53 inh – disrupts HCMV UL50-UL53 complex binding; HTRF UL50-UL53 interaction, normalized percent inhibition; inhibition, % (no concentration beside the values); 190,000 tested, 0.15% active; AID 1918969; in the data active = inhibition above about 27%, passing the limit was not always enough
GIV Gai3 FP – inhibitors of GIV GBA-motif binding to rat Galpha-i3; P08753; Galpha-i3/FITC-GIV peptide fluorescence polarization, 90 min; active compounds read low; scaled: aluminum fluoride 0%, vehicle 100%; percent of control (FP), % (concentration not given with the values); 210,000 compounds, 0.42% hits; AID 1224905;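 active means replicate mean at 85% of control or lower, very high polarization wells dropped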;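 further: wells of about 15 µL received 100 nL stock; the first replicate is given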
Sa growth 42C – inhibitors of Staphylococcus aureus growth at 42 °C; relative growth, % (no concentration beside the values); 170,000 tested, 0.53% active; AID 720641; S. aureus RN4220 growth, OD600, 20 h; stronger effect = lower value;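 active = relative growth at most 50% at the other temperature and 20+ points below 30 °C, or under 10% at both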
Of the large screens only hits and unclear results are named; the others gave an inactive call. A selection: hits, their analogues and other compounds. The true share with any hit is near 0.7%.

CC(C)C1O/C(=N\C(=O)Nc2ccc(Cl)c(Cl)c2)NC1=O (stereo not drawn)	Sa growth 42C 0.5 (no result: GIV Gai3 FP)
CCOc1ccc(Cn2nnc3c(=O)[nH]c(C4CCN(C(=O)c5ccccc5)CC4)nc32)cc1	Sa growth 42C -0.3
Cc1cccc(Cn2nnc3c(=O)[nH]c(C4CCN(C(=O)c5ccc(F)cc5)CC4)nc32)c1	Sa growth 42C 2.7
O=C(c1cccc(Cl)c1)N1CCC(c2nc3c(nnn3Cc3ccc(F)cc3F)c(=O)[nH]2)CC1	Sa growth 42C 0.2
COc1ccc(Cn2nnc3c(=O)[nH]c(C4CCN(C(=O)c5ccc(C)cc5)CC4)nc32)cc1OC	none
COc1cccc(OC)c1Cn1nnc2c(=O)[nH]c(C3CCN(C(=O)c4ccccc4)CC3)nc21	none
O=C(c1ccccc1)N1CCCC(c2nc3c(nnn3Cc3ccc(F)cc3F)c(=O)[nH]2)C1 (stereo not drawn)	none
Cc1ccccc1Cn1nnc2c(=O)[nH]c(C3CCN(C(=O)c4ccccc4)CC3)nc21	Sa growth 42C 3.5
Cc1ccccc1Cn1nnc2c(=O)[nH]c(C3CCN(C(=O)c4ccc(F)cc4)CC3)nc21	none
CCN1C(=O)C(O)(C(C)C(=O)c2ccccc2)c2ccccc21 (stereo not drawn)	none
COc1ccc(NC(C)=O)cc1NC(C)C(=O)NCC1CCCCC1 (stereo not drawn)	none (no result: GIV Gai3 FP)
Cc1ccc2[nH]cc(CCNC(=O)c3ccc(NC(=O)c4nnc(COc5ccccc5)s4)cc3)c2c1	none (no result: Sa growth 42C)
Cc1ccc2nc(CSCc3nc4ccc(Cl)cc4n3CCO)cc(=O)n2c1	none (no result: GIV Gai3 FP)
Cc1cccc(Cn2nnc3c(=O)[nH]c(C4CCCN(C(=O)c5ccccc5Cl)C4)nc32)c1 (stereo not drawn)	none
Cc1ccc(C)c(C(=O)N2CCC(c3nc4c(nnn4Cc4ccccc4)c(=O)[nH]3)CC2)c1	Sa growth 42C 3.7
O=C(/C=c1/[nH]c(=O)/c(=C/c2ccccc2C(F)(F)F)s1)c1ccco1	none (no result: GIV Gai3 FP)
CN(C)/C=c1\s/c(=C/C(=O)c2cccs2)[nH]c1=O	GIV Gai3 FP 72.5
CCCCn1c(=O)nc2n(-c3ccc(OCC)cc3)c3ccccc3cc-2c1=O	none (no result: HCMV UL50-53 inh, Sa growth 42C)
CCCN1CCN(c2ncnc3sc(C(=O)N4CCCCCC4)c(C)c23)CC1	none (no result: HCMV UL50-53 inh, Sa growth 42C)
O=S(=O)(Nc1ccc(O)c2ccccc12)c1ccccc1	Sa growth 42C 5.0
O=C(O)c1ccccc1NS(=O)(=O)c1ccccc1	none (no result: GIV Gai3 FP)
O=C(Nc1cc(-c2ccsc2)no1)C1CC1	none (no result: HCMV UL50-53 inh, Sa growth 42C)
CCCN(CCC)C(=O)Cn1c(SCc2ccc(F)cc2)nc2cccnc21	none (no result: Sa growth 42C)
Cc1ccc(/C=C2\SC(=O)N(c3ccccc3)C2=O)o1	none
O=C1S/C(=C\c2ccc(N3CCOCC3)o2)C(=O)N1c1ccccc1	GIV Gai3 FP -42.3 (no result: HCMV UL50-53 inh)
CCOC(=O)c1[nH]c(C)c(CN(Cc2ccc(OC)cc2)C(=O)Nc2ccc(OC)c(OC)c2)c1C	none (no result: HCMV UL50-53 inh, Sa growth 42C)
CCN(CC)c1ccc2cc(C#N)c(=O)oc2c1	none (no result: GIV Gai3 FP, Sa growth 42C)
CCCCCCc1cc2cc(C#N)c(=O)oc2cc1O	GIV Gai3 FP -3.8
Cc1nn(-c2ccccc2)c2[nH]cc(C(=O)Nc3ccccc3)c(=O)c12	Sa growth 42C 8.8
Cc1cc(C(=O)Nc2ccc(Cl)cc2)c2c(C)nn(-c3ccccc3)c2n1	none (no result: HCMV UL50-53 inh)
O=C(C1CCCCCC1)N1CCC(n2cc(-c3ccccn3)nn2)CC1	none (no result: GIV Gai3 FP, Sa growth 42C)
O=C1C(Sc2ccccc2)=C/C(=N/S(=O)(=O)c2cccs2)c2ccccc21	Sa growth 42C 0.0 (no result: HCMV UL50-53 inh)
CS/C(=N\S(=O)(=O)c1cccs1)NC(=O)c1ccccc1	none (no result: GIV Gai3 FP)
Cc1nc(-c2cccs2)cs1	none (no result: GIV Gai3 FP)
S=c1nc(-c2cccs2)cn[nH]1	Sa growth 42C 38.5 (no result: GIV Gai3 FP)
Cc1noc(C)c1CSc1nc2c(sc3ncccc32)c(=O)n1CC(C)C	HCMV UL50-53 inh 38.0 (no result: Sa growth 42C)
CCc1cc2c(=O)n(Cc3ccccc3)c(SCc3c(C)noc3C)nc2s1	none (no result: GIV Gai3 FP)
Cc1ccc(S(=O)(=O)N2C(=O)CCC2C(=O)NC2CCCC2)cc1C (stereo not drawn)	none (no result: Sa growth 42C)
Cc1cc(N2CCCC2)ccc1/C=C/C1=CCN(C)CC1	none
C=CCn1c(C)c(/C=C/C2=CCN(C)CC2)c2ccccc21	GIV Gai3 FP -11.2
COc1cc(OC)c(C(=O)NC(C)C2CCCO2)cc1OC (stereo not drawn)	none
Cc1ccc(/C(C#N)=C\c2ccco2)cc1	Sa growth 42C 41.8
N#C/C(=C\c1ccco1)S(=O)(=O)c1ccc(Cl)cc1	none
N#C/C(=C/c1ccc(Br)o1)c1ccc(C(=O)O)cc1	none
N#C/C(=C\c1ccco1)c1ccc(Cl)cc1	Sa growth 42C 49.1
Cc1ccc(/C(C#N)=C\c2cccs2)cc1	none
N#C/C(=C/c1ccco1)c1ccc(Br)cc1	Sa growth 42C 22.5
CCOc1ccc(CC(=O)N2CCc3cc(-c4noc(C)n4)ccc32)cc1OCC	none (no result: Sa growth 42C)
CCOc1cc(C2Nc3ccc4ncccc4c3C3=C2C(=O)CCC3)ccc1O (stereo not drawn)	none
Cn1nnc2cc(-c3noc(C4CCCO4)n3)ccc21 (stereo not drawn)	none (no result: HCMV UL50-53 inh, Sa growth 42C)
NCCCNC(=O)c1ccco1	none
COc1ccc2c(c1)c(=O)c1ccccc1n2CC(=O)Nc1cc(Cl)ccc1OC	none (no result: HCMV UL50-53 inh, Sa growth 42C)
COc1ccc2cc(CC(=O)O)ccc2c1	none (no result: GIV Gai3 FP, Sa growth 42C)
Cc1cc(S(=O)(=O)N2CCCC2)ccc1-n1cnnn1	none
O=C(Nc1noc2c1COc1ccccc1-2)N1CCN(c2ccccc2F)CC1	none
C=CC(=O)Nc1cccc(Oc2ccnc3[nH]ccc23)c1	HCMV UL50-53 inh 33.4 (no result: GIV Gai3 FP, Sa growth 42C)
C=CC(=O)Nc1cccc(Oc2ccnc(Nc3ccc(N4CCN(C)CC4)cc3)n2)c1	none (no result: GIV Gai3 FP, Sa growth 42C)
Cc1cc(C)n(C(C)CC(=O)NC2CCC(C)CC2)n1 (stereo not drawn)	none
CCN(C(=O)Cc1c(C(=O)O)[nH]c2ccc(Cl)cc12)c1ccc(C)c(C)c1	none (no result: HCMV UL50-53 inh)
CCCN(C(=O)Cc1c(C(=O)O)[nH]c2ccc(Cl)cc12)c1ccc(OCC)cc1	Sa growth 42C 28.6
CC(NC(=O)COc1ccc(F)cc1Cl)C1CCCO1 (stereo not drawn)	none
O=C(CSc1nnc(Nc2ccccc2)s1)c1ccc(S(=O)(=O)N2CCCC2)cc1	none (no result: GIV Gai3 FP)
COC1C=CO[C@@]2(C)Oc3c(C)c(O)c4c(O)c(c(C=NN5CCN(C)CC5)c(O)c4c3C2=O)NC(=O)C(C)=CC=CC(C)C(O)C(C)C(O)C(C)C(OC(C)=O)C1C (stereo partly drawn)	none (no result: GIV Gai3 FP, Sa growth 42C)
CO[C@H]1/C=C/O[C@@]2(C)Oc3c(C)c(O)c4c(O)c(c(/C=N/N5CCN(C)CC5)c(O)c4c3C2=O)NC(=O)/C(C)=C\C=C\[C@H](C)[C@H](O)[C@@H](C)[C@@H](O)[C@@H](C)[C@H](OC(C)=O)[C@@H]1C	Sa growth 42C 1.6
O=C1CC(c2ccc(Cl)cc2)=Nc2ccccc2N1	none (no result: Sa growth 42C)
CCCN(CCC)C(=O)/C=C/c1cc(OC)c(OC)c(OC)c1	none
COc1cc(/C=C/C(=O)/C=C/c2ccc(N(C)C)cc2)cc(OC)c1OC	GIV Gai3 FP -63.7 (no result: HCMV UL50-53 inh)
COC(=O)C1=C(C)NC(=O)C1(NS(=O)(=O)c1ccc(C)cc1)C(F)(F)F (stereo not drawn)	none
COC1(NS(=O)(=O)c2ccc(C)cc2)C(C)=CC(=O)C=C1C	Sa growth 42C 1.7
Cc1cccc(C(=O)Nc2cnc3ccccn3c2=O)c1	none (no result: Sa growth 42C)
COc1cc(C)c(S(=O)(=O)n2ccnc2)cc1C(C)C	Sa growth 42C 2.4
COc1ccc(Br)cc1S(=O)(=O)n1ccnc1	none (no result: GIV Gai3 FP, Sa growth 42C)
CCCn1c(=O)c2sccc2n2c(SCC(=O)Nc3ccc(Br)cc3)nnc12	none (no result: Sa growth 42C)
NNC(=O)c1oc2nc(-c3ccccc3)cc(-c3ccccc3)c2c1N	none
